Results published in paper PMC4890880 (ACS infectious diseases, 2016).

System: P. falciparum 3D7 parasites
Experiment: Asexual erythrocytic-stage SYBR Green I proliferation assay, 1536-well
Assay type: cell-based
Details: Plasmodium falciparum, 3D7, read-out: P. falciparum (blood) IC50

In the case of `CCC[C@@H]1C[C@@H](C(=O)N[C@@H]([C@H]2O[C@H](SC)[C@H](O)[C@@H](O)[C@H]2O)[C@H](C)Cl)N(C)C1` [Clindamycin], the pIC50 was 6.70.

pIC50: −log10 of the molar value.
